Test results as given in patent publication US20110020346A1 (Genentech, published 2011).

Sequences of proteins named here, by UniProt entry; tags and fusion partners are left off. A line that says so, or that is headed by a name, gives the form on record, which may keep a tag or linker.
UniProt Q00731, other isoform, or with tags, fused parts or gaps limits assumed: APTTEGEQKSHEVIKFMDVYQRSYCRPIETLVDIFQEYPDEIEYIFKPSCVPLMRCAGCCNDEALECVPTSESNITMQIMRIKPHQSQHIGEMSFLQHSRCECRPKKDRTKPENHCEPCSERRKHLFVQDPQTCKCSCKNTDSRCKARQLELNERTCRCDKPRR
UniProt P15692, other isoform, or with tags, fused parts or gaps limits assumed: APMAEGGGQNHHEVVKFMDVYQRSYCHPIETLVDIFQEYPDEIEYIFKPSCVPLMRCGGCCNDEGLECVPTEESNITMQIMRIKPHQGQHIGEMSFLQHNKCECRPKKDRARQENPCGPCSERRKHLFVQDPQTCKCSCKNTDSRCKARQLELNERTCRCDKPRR

Tests used:
[1] = target: T1, murine VEGF (mVEGF) (mouse, UniProt Q00731-2 27-190, limits assumed); experiment: Kd from koff/kon
T1 construct: also called mouse VEGF

[2] = target: T1, murine VEGF (mVEGF); experiment: SPR (BIAcore), FIG. 8
[3] = target: T2, human VEGF (hVEGF) (human, UniProt P15692-4 27-191, limits assumed); experiment: SPR (BIAcore), FIG. 8
T2 construct: Used wherever an assay says only hVEGF

| fold improvement in affinity (Kd) over G6 [1] [fold] | fold better Kd than G6 [2] [fold] | fold better Kd than G6 [3] [fold] | Binder |
| --- | --- | --- | --- |
| 40 to 60 | ≥ 7 | ≥ 7 | G6-23 Fab (Fab, V domains shown, 30-33; also called FabG6-23; Fab-G6-23) VH: EVQLVESGGGLVQPGGSLRLSCAASGFTISDYWIHWVRQAPGKGLEWVAGITPAGGYTYYADSVKGRFTISADTSKNTAYLQMNSLRAEDTAVYYCARFVFFLPYAMDYWGQGTLVTVSS VL: DIQMTQSPSSLSASVGDRVTITCRASQDVSTAVAWYQQKPGKAPKLLIYSASFLYSGVPSRFSGSGSGTDFTLTISSLQPEDFATYYCKQGYANPWTFGQGTKVEIKR |
| 40 to 60 |  |  | G6-31 Fab (Fab, V domains shown, also called Fab-G6-31) VH: EVQLVESGGGLVQPGGSLRLSCAASGFTISDYWIHWVRQAPGKGLEWVAGITPAGGYTYYADSVKGRFTISADTSKNTAYLQMNSLRAEDTAVYYCARFVFFLPYAMDYWGQGTLVTVSS VL: DIQMTQSPSSLSASVGDRVTITCRASQDVSTAVAWYQQKPGKAPKLLIYSASFLYSGVPSRFSGSGSGTDFTLTISSLQPEDFATYYCQQGYGNPFTFGQGTKVEIKR |
